Results taken from patent US10806795B2, “Bispecific anti-hapten/anti-blood brain barrier receptor antibodies, complexes thereof and their use as blood brain barrier shuttles” (Hoffmann-La Roche Inc., priority 2014, dated 2020).

Protein sequences, listed by entry. Tags and fused reporters are not part of them.
UniProt P50391, whole entry, species assumed: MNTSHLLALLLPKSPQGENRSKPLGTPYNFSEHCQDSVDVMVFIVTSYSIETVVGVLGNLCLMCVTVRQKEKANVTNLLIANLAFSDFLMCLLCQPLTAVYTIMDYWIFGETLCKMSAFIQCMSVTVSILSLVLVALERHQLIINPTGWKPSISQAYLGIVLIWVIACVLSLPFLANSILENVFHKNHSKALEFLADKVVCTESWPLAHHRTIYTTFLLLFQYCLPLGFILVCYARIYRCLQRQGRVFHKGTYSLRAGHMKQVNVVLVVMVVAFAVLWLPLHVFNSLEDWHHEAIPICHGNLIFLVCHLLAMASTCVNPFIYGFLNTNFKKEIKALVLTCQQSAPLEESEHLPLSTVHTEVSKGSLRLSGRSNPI

Biological target: NPY4R (Homo sapiens, UniProt P50391)
Assay: Effect on the Y2Receptor family: NPY4R

NPY4R (listed as PYY(3-36) charge 1): 162 nM
NPY4R (listed as PYY(3-36) charge 2): 131 nM
Structure (SMILES): CC[C@H](C)[C@H](N)C(=O)N[C@@H](CCCCN)C(=O)N1CCC[C@H]1C(=O)N[C@@H](CCC(=O)O)C(=O)N[C@@H](C)C(=O)N1CCC[C@H]1C(=O)NCC(=O)N[C@@H](CCC(=O)O)C(=O)N[C@@H](CC(=O)O)C(=O)N[C@@H](C)C(=O)N[C@@H](CO)C(=O)N1CCC[C@H]1C(=O)N[C@@H](CCC(=O)O)C(=O)N[C@@H](CCC(=O)O)C(=O)N[C@@H](CC(C)C)C(=O)N[C@@H](CC(N)=O)C(=O)N[C@@H](CCCNC(=N)N)C(=O)N[C@@H](Cc1ccc(O)cc1)C(=O)N[C@@H](Cc1ccc(O)cc1)C(=O)N[C@@H](C)C(=O)N[C@@H](CO)C(=O)N[C@@H](CC(C)C)C(=O)N[C@@H](CCCNC(=N)N)C(=O)N[C@@H](Cc1c[nH]cn1)C(=O)N[C@@H](Cc1ccc(O)cc1)C(=O)N[C@@H](CC(C)C)C(=O)N[C@@H](CC(N)=O)C(=O)N[C@@H](CC(C)C)C(=O)N[C@H](C(=O)N[C@H](C(=O)N[C@@H](CCCNC(=N)N)C(=O)N[C@@H](CCC(N)=O)C(=O)N[C@@H](CCCNC(=N)N)C(=O)N[C@@H](Cc1ccc(O)cc1)C(N)=O)[C@@H](C)O)C(C)C [PYY(3-36), reference compound]
